The record followed here is ChEMBL document CHEMBL5247678, “Design, Synthesis, and Structure-Activity Relationships of Biaryl Anilines as Subtype-Selective PPAR-alpha Agonists” (ACS Med Chem Lett, 2023).

Sequences of proteins named here, by UniProt entry; tags and fusion partners are left off. A change or cut given only in a name is not applied to a line headed by its entry.
UniProt P37231: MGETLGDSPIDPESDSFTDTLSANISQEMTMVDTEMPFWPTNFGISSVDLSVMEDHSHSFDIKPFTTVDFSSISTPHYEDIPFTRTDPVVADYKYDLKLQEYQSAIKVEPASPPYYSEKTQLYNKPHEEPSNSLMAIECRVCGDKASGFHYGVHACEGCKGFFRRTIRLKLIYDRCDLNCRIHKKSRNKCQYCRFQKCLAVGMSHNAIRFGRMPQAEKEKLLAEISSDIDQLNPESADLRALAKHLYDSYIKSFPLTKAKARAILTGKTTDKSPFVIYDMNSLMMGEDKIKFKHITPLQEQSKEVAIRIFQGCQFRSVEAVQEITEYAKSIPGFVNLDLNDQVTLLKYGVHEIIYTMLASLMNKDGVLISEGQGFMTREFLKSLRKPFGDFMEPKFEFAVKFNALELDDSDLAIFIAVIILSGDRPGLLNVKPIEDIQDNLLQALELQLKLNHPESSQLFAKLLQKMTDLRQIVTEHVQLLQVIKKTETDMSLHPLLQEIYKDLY

Assay [1] has as its target T1, Peroxisome proliferator-activated receptor delta (Homo sapiens) (UniProt Q03181).
T1 sequence (whole entry): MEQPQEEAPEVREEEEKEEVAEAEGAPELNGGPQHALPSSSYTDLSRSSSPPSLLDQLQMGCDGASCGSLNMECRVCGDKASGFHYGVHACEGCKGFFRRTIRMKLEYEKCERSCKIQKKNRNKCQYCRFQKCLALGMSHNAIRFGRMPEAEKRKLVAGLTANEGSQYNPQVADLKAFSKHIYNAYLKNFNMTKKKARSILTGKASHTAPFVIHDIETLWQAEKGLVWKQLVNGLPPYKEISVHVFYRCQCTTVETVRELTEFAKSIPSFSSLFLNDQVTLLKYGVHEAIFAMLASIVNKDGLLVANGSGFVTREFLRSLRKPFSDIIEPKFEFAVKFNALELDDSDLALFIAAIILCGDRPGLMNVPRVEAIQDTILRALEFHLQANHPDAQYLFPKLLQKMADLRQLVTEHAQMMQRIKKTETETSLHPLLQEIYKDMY
Put plainly: Agonist activity at human PPARdelta at 0.013 to 100 uM incubated for 22 to 24 hrs by luciferase assay relative to GW0742. Conditions: dose 0.013-100 µM, time 22-24 hrs.

For assay [2], the target named is Peroxisome proliferator-activated receptor gamma (Homo sapiens) (UniProt P37231). The assay is described as follows: Agonist activity at human PPARgamma at 0.013 to 100 uM incubated for 22 to 24 hrs by luciferase assay relative to rosiglitazone. Conditions: dose 0.013-100 µM, time 22-24 hrs.
Assay [3] has as its target T1, Peroxisome proliferator-activated receptor delta (Homo sapiens). Put plainly: Agonist activity at human PPARdelta at 17 uM incubated for 22 to 24 hrs by luciferase assay relative to GW0742. Conditions: time 22-24 hrs.
The target of assay [4] is Peroxisome proliferator-activated receptor gamma (Homo sapiens) (UniProt P37231). Put plainly: Agonist activity at human PPARgamma at 17 uM incubated for 22 to 24 hrs by luciferase assay relative to rosiglitazone. Conditions: time 22-24 hrs.

Regarding `O=C(O)c1cc(F)cc(NCc2ccc(-c3ccc(OC(F)(F)F)cc3)cc2)c1`, the values for the Activity in assay [1] and in assay [2] were 6.1% and 9.3%, respectively.
Take `O=C(O)c1cc(F)cc(NCc2ccc(-c3ccc(C(F)(F)F)cc3)cc2)c1`: the Activity in assay [1] is 31.1%; in assay [2], 22.5%.
With `O=C(O)c1cc(F)cc(NCc2ccc(-c3ccc(F)cc3)cc2)c1`, the Activity came to 12% in assay [3], 12.1% in assay [1], 11.2% in assay [2] and 11% in assay [4].
For `O=C(O)c1cc(F)cc(NCc2ccc(-c3ccc(C(F)(F)F)cc3)nc2)c1`, the Activity in assay [1] was determined as 21.1%; in assay [2], 19.9%.
Consider `Cc1cc(CNc2cc(F)cc(C(=O)O)c2)ccc1-c1ccc(C(F)(F)F)cc1`, for which the Activity in assay [1] was 25.1%; in assay [2], 35.7%.
